In publication PMC3252304, “Hydroxybenzothiazoles as New Nonsteroidal Inhibitors of 17β-Hydroxysteroid Dehydrogenase Type 1 (17β-HSD1)” (PLoS ONE, 2012) one finds IC50 data, which are given here for one molecule.

pIC50: −log10 of the molar value.

One assay deals with T1, 17β-HSD1 in T47-D cells (Homo sapiens, UniProt P14061).
T1 construct: cell line (obtained from ECACC, Salisbury) that expresses 17β-HSD1; host or cells: T47-D cells
T1 sequence (P14061 1-328): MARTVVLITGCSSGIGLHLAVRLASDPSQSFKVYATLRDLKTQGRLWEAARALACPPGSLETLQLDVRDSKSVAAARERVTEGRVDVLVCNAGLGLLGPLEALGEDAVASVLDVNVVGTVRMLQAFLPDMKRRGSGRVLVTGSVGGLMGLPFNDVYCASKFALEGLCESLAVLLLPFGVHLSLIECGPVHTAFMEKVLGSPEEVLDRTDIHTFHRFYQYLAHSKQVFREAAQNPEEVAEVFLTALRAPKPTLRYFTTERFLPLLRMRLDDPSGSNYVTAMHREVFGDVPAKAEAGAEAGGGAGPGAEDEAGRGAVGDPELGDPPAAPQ
Kind of assay: Intracellular potency: inhibition of E2 formation in T47-D cells. Format: cell-based. The conditions noted are these: labeled E1 50 nM, 0.5 h incubation.

The next assay deals with T2, human 17β-HSD1 (Homo sapiens, UniProt P14061).
T2 construct: In the cell free assay, the placental cytosolic enzyme was used; from tissue; host or cells: human placenta, cytosolic fraction, ammonium sulfate precipitate
T2 sequence (P14061 1-328): T1 sequence (P14061 1-328)
Kind of assay: 17β-HSD1 cell free assay (placental cytosolic enzyme, [3H]E1 to E2, HPLC radiodetection). Format: biochemical. Conditions: human placenta cytosolic fraction, [3H]E1 + E1 500 nM, NADH 500 µM; mean of three determinations. As for the experimental part: In the cell free assay, the placental cytosolic enzyme was used. Tritiated E1 (final concentration: 500 nM) was incubated with 17β-HSD1, NADH (500 µM), and inhibitor as previously described. After high performance liquid chromatography (HPLC) separation of substrate and product, the amount of labeled E2 formed was quantified. […] IC50 values were determined for compounds showing more than 70% inhibition at 1 µM. Compound 2 (Figure 1), identified in a previous study, was used as internal reference (IC50 = 8 nM).
17β-HSD1 and 17β-HSD2 were obtained from human placenta according to previously described procedures. Fresh human placenta was homogenized and cytosolic fraction and microsomes were separated by centrifugation. For the partial purification of 17β-HSD1, the cytosolic fraction was precipitated with ammonium sulfate. 17β-HSD2 was obtained from the microsomal fraction.
Inhibition of 17β-HSD1. Inhibitory activities were evaluated by an established method with minor modifications. […] Detection and quantification of the steroids were performed using a radioflow detector (Berthold Technologies, Bad Wildbad). The conversion rate was calculated after analysis of the resulting chromatograms according to the following equation: % conversion = % E2/(% E2 + % E1) × 100. Each value was calculated from at least three independent experiments.

Regarding `O=C(Nc1nc2ccc(O)cc2s1)c1cccc(O)c1` [Compound 21], the negative-log IC50 (pIC50) against 17β-HSD1 in T47-D cells and on human 17β-HSD1 was 6.61 each time.
